In paper PMC3215401 (Biosensors & bioelectronics, 2011):

Tests used:
Assay type in all cases: cell-based, human
[1] = target: PPARγ LBD, sensor 94PPARγ403 (UniProt P37231+P9WHJ3, V318L)
[2] = target: PPARγ LBD, sensor 100PPARγ383 (UniProt P37231+P9WHJ3, V318L)
[3] = target: PPARγ LBD, sensor 110PPARγ393 (UniProt P37231+P9WHJ3, V318L)
[4] = target: PPARγ LBD, sensor 110PPARγ383 (UniProt P37231+P9WHJ3, V318L)

Compound: CN(CCOc1ccc(CC2SC(=O)NC2=O)cc1)c1ccccn1 (stereo not shown) [ROSIG, Rosiglitazone]
- effect on cell growth [1]: strong positive responses
- effect on cell growth [2]: slightly increased sensitivity
- effect on cell growth [3]: strongly facilitated its growth
- effect on cell growth [4]: significantly enhanced
